# Several values for one entry are separate records, joined by “and”; a condition that tells them apart may be missing. Identical values can stand only once.
# Test system: MIA Paca2 T2 xenograft tumor
# Assay: MIA Paca2 T2 human pancreatic cancer xenograft mouse subcutaneous model
# Details: 100 mg/kg, po, qd, 28 days
smiles,measurement,value
"C=CC(=O)N1CCN(c2nc(=O)n(-c3c(C)ccnc3C(C)C)c3nc(-c4c(O)cccc4F)c(F)cc23)[C@@H](C)C1 (atropisomer, axis not shown) [AMG510, reference compound]",Antitumor activity T/C value (%),−96% and −95.7%

# — patent US20220389013A1, “PYRIDOPYRIMIDINONE COMPOUNDS AND APPLICATIONS THEREOF” (BeBetter Med Inc., priority 2020, published 2022)
